The subject of the assay is NMRI mice. In words: Analgesia testing in the tail flick test on the mouse. As to conditions: intravenously, action maximum 20 minutes after administration.

In general, ED50 refers to the dose that gives a 50% effect, or the effect in half of the subjects. Low readings indicate greater potency, high ones weaker potency.

`CN(C)C1(Cc2ccccc2)CCC(O)(CCc2ccccc2F)CC1.Cl` (stereo not drawn) returned an ED50 of 0.055 mg/kg. `Cl.OC1(CCc2ccccc2)CCC(Cc2ccccc2)(N2CCCC2)CC1` (stereo not drawn): the ED50 came out at 0.15 mg/kg.

`CN(C)C1(Cc2ccccc2)CCC(O)(c2cc3ccccc3s2)CC1` (stereo not drawn): the ED50 was found to be 0.04 mg/kg. `CN(C)C1(Cc2ccccc2)CCC(O)(CCc2cccc(F)c2)CC1.Cl` (stereo not drawn): the ED50 amounted to 0.059 mg/kg. `CN(C)C1(Cc2cccc(F)c2)CCC(O)(Cc2ccccc2)CC1.Cl` (stereo not drawn): the ED50 was 0.028 mg/kg. As to `CN(C)C1(Cc2cccc(F)c2)CCC(O)(CCc2ccccc2)CC1.Cl` (stereo not drawn), the ED50 was 0.089 mg/kg.
